Earlier results as cited in US6997270B2, “Compounds and method for generating a highly efficient membrane in water-based drilling fluids” (Halliburton Energy Services, Inc., priority 2000, dated 2006).

Settings: cited from earlier work

Substance: silicic acid
- pKa: 9.8
